These are literature values, as cited in US5320825A, “Serotonin reuptake inhibitors for S.P.E.C.T. imaging” (Trustees of the University of Pennsylvania, priority 1991, dated 1994).

The term Ki denotes the equilibrium dissociation constant of an inhibitor or competing ligand from its target.

For data set [1], the target named is serotonin reuptake system (5-HT). To be noted: read-out: Inhibition of monoamine uptake, 5-HT (Ki); cited from earlier work.
The target of data set [2] is norepinephrine (NE) reuptake system. As to conditions: rat synaptosomes; read-out: Inhibition of monoamine uptake, NE (Ki); cited from earlier work.

For `CNCCC(Oc1ccc(C(F)(F)F)cc1)c1ccccc1` (stereo not drawn) [Fluoxetine], the Ki in data set [1] is 25 nM. On to `Fc1ccc([C@@H]2CCNC[C@H]2COc2ccc3c(c2)OCO3)cc1` [Paroxetine], for which the Ki in data set [1] is 1.1 nM. On to `CNC1CCC(c2ccc(Cl)c(Cl)c2)c2ccccc21` (stereo not drawn) [Sertraline], for which, in data set [2], the Ki was 720 nM.
